Our source for the inhibition values is PubChem BioAssay AID2516 (University of Pittsburgh Molecular Library Screening Center, 2010).

In the assay the test system is glucose-6-phosphate dehydrogenase [Leuconostoc mesenteroides]. Description: coupling enzyme G6PDH activity blockers – biochemical, DPI cherry-picked compounds, single concentration, counter-screen for TbHK1 inhibitor project, confirmation (AID 2516). Particulars: purified G6PDH, NADH absorbance, 1 h; at 10 µM; stronger effect = higher value. The method, boiled down: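 Assay system: purified G6PDH enzyme / Quantity: G6PDH enzyme at 0.006 mU/µL final / Doses: one dose, 10 µM / Schedule: enzyme reaction for 1 h at room temperature / Detection: absorbance, mix-and-read, after quench with 50 mM EDTA final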

This is a selection; strong and weak results do not stand in their true shares. Active and inactive are the calls of the source.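 The calls were made as follows: active = at least 50% inhibition in the glucose-6-phosphate dehydrogenase coupled counterscreen; inconclusive = no clear call, values can overlap the other calls; inactive = inhibition below 50%.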

As for `O=P(Nc1nccs1)(c1ccccc1)c1nc2ccccc2s1` (stereo unspecified), the inhibition is inactive: -11.5%.

The inhibition is the relative decrease from the control value, in per cent.
